Measured values as given in patent publication US20240166755A1, “CHIMERIC ANTIGEN RECEPTORS TARGETING CANCER” (University of Southern California, priority 2016, published 2024).

Tests used:
RAJI-GLuc cells = assay: ELISA of IFNγ in supernatant of RAJI-GLuc cells with Blinatumomab and T cells; details: Blinatumomab in the presence of T cells
[1] = tested on: Blinatumomab induced cell death of RAJI-GLuc cells mediated by T cells; assay: Blinatumomab-induced, T cell-mediated death of RAJI-GLuc cells and its block by drugs (GLuc assay); type: cell-based, human; details: Blinatumomab 100 ng/10^6 cells, T cells E:T 1:1, 96 hours
primary T cells and PBMC = assay: Immortalization: long term proliferation of primary lymphocytes after IL2 withdrawal (Table 26); type: cell-based, human; details: for long term proliferation in culture after IL2 withdrawal: PBMC and T cells infected with lentiviral vector, blasticidin selected
Protocol: The nucleotide and protein sequences of K13 are provided in SEQ ID NOs: 866 and 2629, respectively. Approximately 1 day post-infection, cells were selected with blasticidin. After selection, the cells were grown in XVIVO medium and IL2 withdrawn.

Row | Substance | IFNγ production (RAJI-GLuc cells) | death of RAJI-GLuc cells [1] | long term proliferation in culture after IL2 withdrawal (primary T cells and PBMC) | immortalization of primary lymphocytes, T-cells (primary T cells and PBMC; CD3+ve T cells infected with lentiviral vector, after IL2 withdrawal) | immortalization of primary lymphocytes, B-cells (primary T cells and PBMC; CD3-ve cells (designated B cells) infected with lentiviral vector, after IL2 withdrawal) | immortalization of primary lymphocytes, PBMCs (primary T cells and PBMC; PBMCs infected with lentiviral vector, after IL2 withdrawal)
1 | Blinatumomab: bispecific CD19-directed CD3 T cell engager (BiTE) antibody construct | strong induction of IFNγ production | strong induction of death |  |  |  | 
2 | HTLV1-Tax: HTLV1-encoded Tax protein [reference compound] |  |  | continued to proliferate in culture long after IL2 withdrawal |  |  | 
3 | K13-Flag: C-terminal Flag-tagged viral FLICE inhibitory protein K13 of Kaposi's sarcoma associated herpesvirus |  |  | continued to proliferate in culture long after IL2 withdrawal | + | − | +
